{"source": "patent US6696546B1", "about": "“Peptide that kills growing but not stationary cells” (The Trustees of Columbia University in the City of New York, priority 2000, dated 2004)", "key": {"[1]": {"test_system": "HaTCat cells", "assay": "DNA content by propidium iodide staining and FACS, HaTCat cells", "type": "cell-based, human", "conditions": "confluent (resting) HaTCat cells", "text": "A graphical representation of DNA content of cells as collected by propidium iodide staining and subsequent FACS analysis. G0/G1, S, and G2M phases are depicted of cells either treated or not treated with cell permeable peptides. The percentage of untreated cell in a given phase are in white, PAP's CRM in (SEQ ID NO: 3) black, p21's in gray (SEQ ID NO: 5), scrambled in horizontal stripes (SEQ ID NO: 4), internalization sequence alone in vertical stripes (SEQ ID NO: 2).\n(A) PAP's CRM (SEQ ID NO: 3) kills growing HaTCats, but stimulates S-phase entry of stationary HaTCats. The bar graph depicts the fold induction over non-treated cells of sub-G1 DNA content and S-phase DNA content of four different populations of cells. The percentage of cells found S-phase of each population is noted below the bar graph. Sub-G1 DNA content and S-phase DNA content are depicted of cells either treated or not treated with cell permeable peptides. […]\nPanel B of FIG. 7 is a graphical representation of DNA content of cells, derived from propidium iodide staining and subsequent the fluorescence-activated cell sorter (FACS) analysis. […]\n(§1) After treatment with or without cell membrane permeable peptides (Synpep), cells were trypsinized, centrifuged and washed in PBS. […] The cells were then applied to the fluorescence-activated cell sorter (FACSCalibur; Becton Dickson). […]"}, "[2]": {"test_system": "MEFs", "assay": "DNA content by propidium iodide staining and FACS, mouse embryo fibroblasts", "type": "cell-based", "conditions": "sub-confluent MEFs, one hour; SEQ ID NO:3 1.87-30 μM, controls 30 μM", "procedure": "(A) PAP's CRM stimulates both the percentage of cells with sub-G1 DNA content and S-phase DNA content in a dose dependent manner. DNA content as measured by FACS analysis is graphically represented.\n(B) PAP's CRM stimulates cell death over time. The percentage of cells with a sub-G1 DNA content with or without treatment with 30 μM of PAP's CRM (SEQ ID NO: 3) for varying lengths of time is shown.\n(C) The percents of cells with G0/G1 (in black), S (in gray), and G2/M (in white) DNA contents of the same population of cells in (B) are depicted.\nPanel A depicts the MEF's response to a concentration curve of SEQ ID NO:3. […]\nTo further study the MEF's reactions to the membrane permeable peptide, SEQ ID NO:3, and to determine if the increase in S-phase depicts a stimulation or inhibition of proliferation, treatment with one concentration was followed at varying time points. Sub-confluent MEFs were treated with 30 μM SEQ ID NO:3, harvested at different time points, and their DNA content was analyzed by propidium iodide staining and subsequent FACS analysis. FIG. 10 panel B depicts the percentage of death initiated over time, as measured by sub-G1 DNA content. […]\nas §1"}, "[3]": {"target": "PAP-cyclin B1 interaction (Homo sapiens, UniProt P14635)", "assay": "GST-cyclin B1 pull-down assay of PAP binding"}}, "data": [{"substance": "SEQ ID NO:5: 8-mer peptide spanning the CRM of p21 (a cdk inhibitor); fused to penetratin in cell tests (KACRRLFG; listed as Homo Sapiens) [reference compound]", "values": [{"measurement": "S-phase population of cells", "setting": "[1]", "value": "not observed"}, {"measurement": "percentage of cells with S-phase DNA content", "setting": "[2]", "value": "No effects"}, {"measurement": "percentage of cells with sub-G1 DNA content", "setting": "[2]", "value": "No effects"}, {"measurement": "association of purified bacterial his-PAP I with GST-cyclin B1", "setting": "[3]; 2, 10 and 20 μM peptide, Western blot with anti-PAP antibody", "value": "no effect"}]}, {"substance": "SKIRILVG (poly(A) polymerase cyclin recognition motif) [SEQ ID NO:1]", "values": [{"measurement": "interaction between PAP and cyclin B1", "setting": "[3]; 40 and 70 μM peptide, in vitro translated 35S-labeled PAP I", "value": "disruption of the interaction"}, {"measurement": "PAP I binding to cyclin B1", "setting": "[3]; lower concentrations of peptide (9 and 18 μM), in vitro translated 35S-labeled PAP I", "value": "dramatic stimulation of binding"}]}]}
